Data as given in patent publication US20080269293A1, “PYRAZOLE DERIVATIVES AS ANTI-PLATELET AND ANTI-THROMBOTIC AGENTS” (Pfizer Inc., priority 2006, published 2008).

Protein sequences, listed by entry. Tags and fused reporters are not part of them.
UniProt P47900, whole entry: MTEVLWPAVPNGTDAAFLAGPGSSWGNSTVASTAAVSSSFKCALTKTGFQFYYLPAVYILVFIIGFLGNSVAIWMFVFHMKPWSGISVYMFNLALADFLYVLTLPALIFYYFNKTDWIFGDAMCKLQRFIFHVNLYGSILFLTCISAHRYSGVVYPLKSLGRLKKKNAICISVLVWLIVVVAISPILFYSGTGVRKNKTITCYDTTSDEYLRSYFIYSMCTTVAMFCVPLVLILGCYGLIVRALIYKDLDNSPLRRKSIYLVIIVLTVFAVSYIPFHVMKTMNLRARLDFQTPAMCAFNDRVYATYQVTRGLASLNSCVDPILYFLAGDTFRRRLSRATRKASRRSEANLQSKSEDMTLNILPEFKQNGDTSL

Target: platelet P2Y1 receptor (Homo sapiens, UniProt P47900)
Assay: P2Y1 receptor binding assay ([β-33P]-2-thiomethyl ADP)
Settings: read-out: P2Y1 IC50; binding of 0.3 nM [β-33P]-2-thiomethyl ADP, hP2Y1 expressing 132N1 cell membrane, 25° C., 60 minutes

| SMILES | IC50 [nM] |
| --- | --- |
| Cc1cc(Oc2ccccc2NC(=O)Nc2c(C)cc(Br)cc2C)n(-c2ccccc2)n1 | > 10000 |
| COc1ccc(NC(=O)Nc2ccccc2Oc2cc(C)nn2-c2ccccc2)c(OC)c1 | > 10000 |
| CC(=O)c1cccc(NC(=O)Nc2ccccc2Oc2cc(C)nn2-c2ccccc2)c1 | > 10000 |
| CCc1ccccc1-n1nc(C)cc1Oc1ncccc1NC(=O)Nc1ccc(OC(F)(F)F)cc1 | 39 |
| Cc1cc(Oc2ccccc2NC(=O)Nc2ccccc2Cl)n(-c2ccccc2)n1 | > 10000 |

More lines, now with the values ahead:

| IC50 [nM] | SMILES |
| --- | --- |
| 2740 | Cc1cc(Oc2ccccc2NC(=O)Nc2ccc(F)cc2)n(-c2ccccc2)n1 |
| 1190 | Cc1cc(Oc2ccccc2NC(=O)Nc2ccc(F)cc2F)n(-c2ccccc2)n1 |
| > 10000 | COc1ccc(OC)c(NC(=O)Nc2ccccc2Oc2cc(C)nn2-c2ccccc2)c1 |
| 1320 | Cc1cc(Oc2ccccc2NC(=O)Nc2cc(F)cc(F)c2)n(-c2ccccc2)n1 |
